Experimental data as given in PubChem BioAssay AID435003 (Sanford-Burnham Center for Chemical Genomics, 2010).
This is a selection; strong and weak results do not stand in their true shares. Some salts and complexes are drawn in separate pieces, as the source files them; their charges need not balance. Calls of active or inactive are those of the source. Rule as the data show it: active = inhibition above about 50%; inactive = the rest.

Assay: inhibitors of induced NF-kB luciferase reporter, primary screen, TCR NF-kB activation inhibitor project, cell-based, luminescence, uHTS (AID 435003)
Conditions: Jurkat, PMA/ionomycin-induced NF-kB luciferase reporter, at 4 µM, active compounds read high

| SMILES | inhibition |
| --- | --- |
| COc1ccc(OP(C)(=O)Nc2ccccc2Br)cc1 (stereo not drawn) | inactive: -0.34% |
| COc1ccccc1OP(C)(=O)Nc1ccc(C)c(C)c1 (stereo not drawn) | inactive: 21.4% |
| Cc1cc(C)cc(OP(C)(=O)Nc2cccc(C(F)(F)F)c2)c1 (stereo not drawn) | inactive: 8.91% |
| CP(=O)(Nc1ccc(Cl)cc1Cl)Oc1ccccc1 (stereo not drawn) | inactive: -2.11% |
| CP(=O)(OCCOc1ccccc1)OCCOc1ccccc1 | inactive: 1.87% |
| Cc1nc2ccc3ccccc3c2o1.O=[N+]([O-])c1cc([N+](=O)[O-])c(O)c([N+](=O)[O-])c1 | inactive: -6.99% |
| CN(C)CCOC(=O)C(O)(c1ccccc1)C1CCCC1 (stereo not drawn) | inactive: 6.88% |
| COc1ccc(OP(C)(=O)Nc2ccccn2)cc1 (stereo not drawn) | inactive: 9.13% |
| COc1ccccc1OP(C)(=O)Nc1ccc(Br)cc1 (stereo not drawn) | inactive: -14.6% |
| CCc1ccc(OP(C)(=O)O)cc1 | inactive: 4.65% |
| COc1ccccc1OP(C)(=O)Nc1ccc(C)cc1C (stereo not drawn) | inactive: -4.19% |
| CP(=O)(Nc1ccccn1)Oc1ccccc1 (stereo not drawn) | inactive: -16.8% |
| Cc1c(NP(C)(=O)Oc2ccc(C(C)C)cc2)c(=O)n(-c2ccccc2)n1C (stereo not drawn) | inactive: -0.204% |
| O=[N+]([O-])c1cc([N+](=O)[O-])c(Nc2ccccn2)c([N+](=O)[O-])c1 | inactive: 9.68% |
| CCc1ccc(OP(C)(=O)Nc2cccnc2)cc1 (stereo not drawn) | inactive: 1.85% |
| CP(=O)(Oc1ccccc1)N1CCOC1=O (stereo not drawn) | inactive: -3.2% |
| O=C(OCCCN1CCCC1)C(O)(c1ccccc1)C1CCCCC1 (stereo not drawn) | inactive: 6.4% |
| COc1ccccc1OP(C)(=O)Nc1c(C)n(C)n(-c2ccccc2)c1=O (stereo not drawn) | inactive: 0.973% |
| COc1ccc(OP(C)(=O)Nc2ccc(Br)cc2)cc1 (stereo not drawn) | inactive: -3.83% |
| CCN(CC)CC(O)COC(=O)C(O)(c1ccccc1)C1CCCCC1 (stereo not drawn) | inactive: 4.43% |

| SMILES | inhibition |
| --- | --- |
| CN(C)C(=O)c1c([N+](=O)[O-])cc([N+](=O)[O-])cc1[N+](=O)[O-] | inactive: 9.24% |
| CP(=O)(Nc1ccc(Cl)cc1)Oc1ccc(F)cc1 (stereo not drawn) | inactive: 11.4% |
| COc1ccccc1OP(C)(=O)Nc1ccccc1Br (stereo not drawn) | inactive: 0.00233% |
| CC(C)(C)c1ccc(OP(C)(=O)O)cc1 | inactive: -10.4% |
| CP(=O)(OC12CC3CC(CC(C3)C1)C2)OC12CC3CC(CC(C3)C1)C2 | inactive: -9.52% |
| CCOC(=O)c1ccc(NP(C)(=O)Oc2ccc(Cl)cc2)cc1 (stereo not drawn) | inactive: 7.8% |
| Nc1ccc2c(ccc3cccnc32)n1.O=[N+]([O-])c1cc([N+](=O)[O-])c(O)c([N+](=O)[O-])c1 | inactive: -2.49% |
| COc1ccc(NP(C)(=O)Oc2ccccc2OC)cc1 (stereo not drawn) | inactive: 12.7% |
| CN(C)CCOC(=O)C(O)(c1ccccc1)C1CCCCC1 (stereo not drawn) | inactive: -4.72% |
| COc1ccc(OP(C)(=O)Nc2cccc(Br)c2)cc1 (stereo not drawn) | inactive: -10.3% |
| O=[N+]([O-])c1cc([N+](=O)[O-])c(NCC2CCS(=O)(=O)C2)c([N+](=O)[O-])c1 (stereo not drawn) | inactive: -1.58% |
| CCOP(C)(=S)SCC(=O)NC(C)(CC)C(=O)O (stereo not drawn) | inactive: -2.93% |
| CP(=O)(Nc1ccc(SC(F)(F)F)cc1)Oc1ccc(F)cc1 (stereo not drawn) | inactive: -2.51% |
| Cc1ccccc1NP(C)(=O)Nc1ccccc1C | inactive: -3.91% |
| CP(=O)(Nc1ccc2c(c1)OCCO2)Oc1ccccc1 (stereo not drawn) | inactive: 8.64% |
| CC(C)c1ccc(OP(C)(=O)Nc2ccc(SC(F)(F)F)cc2)cc1 (stereo not drawn) | inactive: 0.861% |
| CP(=O)(Nc1ccccc1F)Oc1ccccc1 (stereo not drawn) | inactive: -5.45% |
| COc1ccc2c(c1O)-c1c(O)c(OC)cc3c1[C@H](C2)[N+](C)(C)CC3.O=[N+]([O-])c1cc([N+](=O)[O-])c([O-])c([N+](=O)[O-])c1[O-] | inactive: 0.14% |
| O=C(OCCN1CCN(CCOCc2ccccc2)CC1)C(O)(c1ccccc1)c1ccccc1 | inactive: 3.57% |
| O=C(OC1CN2CCC1CC2)c1ccc([N+](=O)[O-])cc1 (stereo not drawn) | inactive: -15.6% |

| SMILES | inhibition |
| --- | --- |
| COc1ccc(OP(C)(=O)Nc2ccc(SC(F)(F)F)cc2)cc1 (stereo not drawn) | inactive: 8.36% |
| CCOC(=O)c1ccc(NP(C)(=O)Oc2ccc(F)cc2)cc1 (stereo not drawn) | inactive: 8.9% |
| CCCCCOc1ccc(NP(C)(=O)Oc2ccc(Cl)cc2Cl)cc1 (stereo not drawn) | inactive: -16.3% |
| O=[N+]([O-])c1cc([N+](=O)[O-])c(OC2CCCCC2O)c([N+](=O)[O-])c1 (stereo not drawn) | inactive: 1.93% |
| CP(=O)(Nc1ccccc1)Oc1ccc(F)cc1 (stereo not drawn) | inactive: -7.18% |
| CCN(CC)CCCOC(=O)C(O)(c1ccccc1)C1CCCCC1 (stereo not drawn) | inactive: -20.2% |
| O=C(O)c1cccc(Nc2c([N+](=O)[O-])cc([N+](=O)[O-])cc2[N+](=O)[O-])c1 | inactive: 2.04% |
| CC1=NCCc2c1[nH]c1ccccc21.O=[N+]([O-])c1cc([N+](=O)[O-])c(O)c([N+](=O)[O-])c1 | inactive: 7.58% |
| Cc1cc(C)cc(OP(C)(=O)Nc2ccc(C)cc2C)c1 (stereo not drawn) | inactive: -2.04% |
| CCOC(=O)c1ccc(NP(C)(=O)Oc2cc(C)cc(C)c2)cc1 (stereo not drawn) | inactive: -8.01% |
| COc1ccccc1OP(C)(=O)Nc1cccc(Br)c1 (stereo not drawn) | inactive: -4.44% |
| Cc1cc(C)cc(OP(C)(=O)Nc2ccccn2)c1 (stereo not drawn) | inactive: 8.9% |
| CP(=O)(Nc1cccc(Br)c1)Oc1ccccc1 (stereo not drawn) | inactive: 9.9% |
| Cc1ccc(C)c(NP(C)(=O)Oc2ccccc2)c1 (stereo not drawn) | inactive: 9.69% |
| O=[N+]([O-])c1cc([N+](=O)[O-])c(-n2nnc3ccccc32)c([N+](=O)[O-])c1 | inactive: 0.104% |
| Cc1nc2ccc3ccccc3c2s1.O=[N+]([O-])c1cc([N+](=O)[O-])c(O)c([N+](=O)[O-])c1 | inactive: -4.24% |
| O=[N+]([O-])c1cc([N+](=O)[O-])c(-c2cnn(-c3ccccc3)c2)c([N+](=O)[O-])c1 | inactive: -4.77% |
| CCOC(=O)C(CC)C1=NC(C)(C)Cc2ccccc21.O=[N+]([O-])c1cc([N+](=O)[O-])c(O)c([N+](=O)[O-])c1 (stereo not drawn) | inactive: -10% |
